Patent publication US20250213558A1, “T-TYPE CALCIUM CHANNEL MODULATORS COMPRISING A PIPERAZINE OR 1,4-DIAZEPANE CORE AND METHODS OF USE THEREOF” (Praxis Precision Medicines, Inc., priority 2022, published 2025)

Amino acid sequences for entries named in this document (tags omitted).
UniProt O43497, whole entry: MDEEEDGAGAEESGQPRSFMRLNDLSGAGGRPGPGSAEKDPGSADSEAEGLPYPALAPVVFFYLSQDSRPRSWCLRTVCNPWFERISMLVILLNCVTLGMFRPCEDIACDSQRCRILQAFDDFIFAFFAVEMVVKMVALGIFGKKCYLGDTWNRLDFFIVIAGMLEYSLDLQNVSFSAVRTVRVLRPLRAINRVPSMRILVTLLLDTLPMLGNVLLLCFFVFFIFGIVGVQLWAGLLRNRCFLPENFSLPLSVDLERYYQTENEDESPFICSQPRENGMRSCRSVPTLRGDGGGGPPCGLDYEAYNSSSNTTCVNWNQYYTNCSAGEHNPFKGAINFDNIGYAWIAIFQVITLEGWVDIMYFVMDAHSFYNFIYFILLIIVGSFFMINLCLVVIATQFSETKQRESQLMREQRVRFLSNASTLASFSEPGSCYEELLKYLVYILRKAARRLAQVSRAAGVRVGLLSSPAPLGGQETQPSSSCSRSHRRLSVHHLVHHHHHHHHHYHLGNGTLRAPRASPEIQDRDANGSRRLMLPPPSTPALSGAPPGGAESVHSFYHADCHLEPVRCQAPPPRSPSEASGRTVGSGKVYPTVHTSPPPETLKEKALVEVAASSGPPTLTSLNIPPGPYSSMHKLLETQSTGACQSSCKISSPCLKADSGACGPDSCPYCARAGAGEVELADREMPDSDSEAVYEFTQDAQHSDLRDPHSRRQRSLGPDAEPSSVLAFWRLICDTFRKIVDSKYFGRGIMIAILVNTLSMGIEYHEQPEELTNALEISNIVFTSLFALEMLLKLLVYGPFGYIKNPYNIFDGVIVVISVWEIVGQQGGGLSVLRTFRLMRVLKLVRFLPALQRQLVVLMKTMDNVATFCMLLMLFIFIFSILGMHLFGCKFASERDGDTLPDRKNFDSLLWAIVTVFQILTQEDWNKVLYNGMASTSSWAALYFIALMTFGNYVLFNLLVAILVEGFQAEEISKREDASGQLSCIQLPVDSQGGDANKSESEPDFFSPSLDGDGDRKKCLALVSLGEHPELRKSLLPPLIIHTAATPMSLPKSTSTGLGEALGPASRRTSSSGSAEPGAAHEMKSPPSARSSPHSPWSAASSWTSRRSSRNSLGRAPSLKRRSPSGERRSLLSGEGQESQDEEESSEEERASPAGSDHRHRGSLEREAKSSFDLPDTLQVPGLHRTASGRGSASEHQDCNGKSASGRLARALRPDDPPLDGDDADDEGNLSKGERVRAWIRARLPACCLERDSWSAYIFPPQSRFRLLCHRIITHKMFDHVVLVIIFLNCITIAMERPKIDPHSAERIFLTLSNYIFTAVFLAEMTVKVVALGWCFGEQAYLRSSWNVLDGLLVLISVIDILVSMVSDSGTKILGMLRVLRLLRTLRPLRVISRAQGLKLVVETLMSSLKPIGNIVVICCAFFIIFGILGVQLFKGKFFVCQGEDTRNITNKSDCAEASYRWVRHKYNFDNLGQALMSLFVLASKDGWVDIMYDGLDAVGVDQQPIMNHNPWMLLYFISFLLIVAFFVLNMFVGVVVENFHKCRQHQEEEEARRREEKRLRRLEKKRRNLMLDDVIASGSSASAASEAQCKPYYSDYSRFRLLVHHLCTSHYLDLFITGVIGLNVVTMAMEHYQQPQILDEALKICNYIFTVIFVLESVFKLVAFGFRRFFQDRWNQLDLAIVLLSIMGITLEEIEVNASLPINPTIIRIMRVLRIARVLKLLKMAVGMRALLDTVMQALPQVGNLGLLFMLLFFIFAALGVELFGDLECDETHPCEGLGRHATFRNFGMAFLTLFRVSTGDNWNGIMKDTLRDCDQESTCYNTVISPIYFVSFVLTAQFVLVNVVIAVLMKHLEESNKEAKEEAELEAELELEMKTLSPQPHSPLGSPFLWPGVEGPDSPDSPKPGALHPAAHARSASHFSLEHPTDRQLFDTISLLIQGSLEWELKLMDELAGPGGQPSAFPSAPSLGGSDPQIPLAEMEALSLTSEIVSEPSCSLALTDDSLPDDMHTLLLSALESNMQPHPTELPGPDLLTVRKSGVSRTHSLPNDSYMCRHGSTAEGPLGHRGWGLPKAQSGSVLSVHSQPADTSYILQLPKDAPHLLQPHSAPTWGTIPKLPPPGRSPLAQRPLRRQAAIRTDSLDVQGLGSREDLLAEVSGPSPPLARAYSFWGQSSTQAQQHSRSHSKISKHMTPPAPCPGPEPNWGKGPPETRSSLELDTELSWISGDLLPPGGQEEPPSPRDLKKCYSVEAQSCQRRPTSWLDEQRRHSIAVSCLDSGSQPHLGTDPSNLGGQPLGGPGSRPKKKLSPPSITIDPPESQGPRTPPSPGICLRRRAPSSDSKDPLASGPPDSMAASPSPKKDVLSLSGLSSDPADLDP

Target: Human Cav3.1 calcium channel (Homo sapiens, UniProt O43497)
Assay: Human Cav3.1 calcium channel patch clamp assay (SyncroPatch 384PE; single point and IC50, voltage dependent block)
Conditions: HEK-293 natClytin/TASK1+Cav3.1 cell line; for % Inhibition (Single Point Data): Testing Conc 1.25, patch clamp; for IC50: read-out: Cav3.1 IC50, voltage dependent block (VDB)

Compound	% Inhibition (Single Point Data) [%]	IC50 [nM]
Cc1ccc(Cl)c(NC(=O)CN2CC3CC(C2)N3CC(=O)NC(C)(C)C)c1	49.751	1270
CC(C)(C)NC(=O)CN1CC2CC1CN2CC(=O)Nc1cccc(OC(F)F)c1 (stereo not shown)	95.485	264
